Earlier results as cited in article PMC4583267, “Synthesis and Evaluation of Novel Triterpene Analogues of Ursolic Acid as Potential Antidiabetic Agent” (PLoS ONE, 2015).

By UniProt entry, the sequences of proteins in these tests, tags left out.
UniProt P53341, whole entry: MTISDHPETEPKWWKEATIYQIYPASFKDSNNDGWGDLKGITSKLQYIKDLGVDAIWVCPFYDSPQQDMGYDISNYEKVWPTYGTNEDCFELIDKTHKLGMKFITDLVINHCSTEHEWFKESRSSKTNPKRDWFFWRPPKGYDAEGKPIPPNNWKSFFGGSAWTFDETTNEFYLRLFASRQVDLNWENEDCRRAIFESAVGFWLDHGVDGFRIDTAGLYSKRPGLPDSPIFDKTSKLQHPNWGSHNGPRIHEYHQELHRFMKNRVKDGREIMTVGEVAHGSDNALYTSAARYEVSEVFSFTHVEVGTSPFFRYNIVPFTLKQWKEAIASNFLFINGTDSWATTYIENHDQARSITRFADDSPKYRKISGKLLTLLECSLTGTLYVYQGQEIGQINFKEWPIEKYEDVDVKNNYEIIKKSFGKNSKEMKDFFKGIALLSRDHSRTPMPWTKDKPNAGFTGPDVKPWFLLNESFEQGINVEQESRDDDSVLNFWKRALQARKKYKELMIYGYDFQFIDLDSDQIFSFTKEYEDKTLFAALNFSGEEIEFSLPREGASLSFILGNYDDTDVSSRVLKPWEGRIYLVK

Molecular target: α-glucosidase from baker's yeast (Saccharomyces cerevisiae, UniProt P53341)
Details: S4 Table; analogues of previous work; cited from earlier work

Structure (SMILES) | Observed pIC50
CCC(=O)O[C@H]1CC[C@@]2(C)C(CC[C@]3(C)C2CC=C2C4[C@@H](C)[C@H](C)CC[C@]4(C(=O)Nc4ccccc4Cl)CC[C@]23C)C1(C)C (some centres unmarked) | 4.920
CCC(=O)O[C@H]1CC[C@@]2(C)C(CC[C@]3(C)C2CC=C2C4[C@@H](C)[C@H](C)CC[C@]4(C(=O)Nc4ccc(F)cc4)CC[C@]23C)C1(C)C (some centres unmarked) | 5.336
CCCC(=O)O[C@H]1CC[C@@]2(C)C(CC[C@]3(C)C2CC=C2C4[C@@H](C)[C@H](C)CC[C@]4(C(=O)O)CC[C@]23C)C1(C)C (some centres unmarked) | 5.996
CC(C)C(=O)O[C@H]1CC[C@@]2(C)C(CC[C@]3(C)C2CC=C2C4[C@@H](C)[C@H](C)CC[C@]4(C(=O)O)CC[C@]23C)C1(C)C (some centres unmarked) | 5.487
CCC(=O)O[C@H]1CC[C@@]2(C)C(CC[C@]3(C)C2CC=C2C4[C@@H](C)[C@H](C)CC[C@]4(C(=O)Nc4ccccc4Br)CC[C@]23C)C1(C)C (some centres unmarked) | 4.522
CCC(=O)O[C@H]1CC[C@@]2(C)C(CC[C@]3(C)C2CC=C2C4[C@@H](C)[C@H](C)CC[C@]4(C(=O)Nc4ccc(Cl)cc4)CC[C@]23C)C1(C)C (some centres unmarked) | 5.261
CCC(=O)O[C@H]1CC[C@@]2(C)C(CC[C@]3(C)C2CC=C2C4[C@@H](C)[C@H](C)CC[C@]4(C(=O)Nc4ccccc4)CC[C@]23C)C1(C)C (some centres unmarked) | 4.826
CCC(=O)O[C@H]1CC[C@@]2(C)C(CC[C@]3(C)C2CC=C2C4[C@@H](C)[C@H](C)CC[C@]4(C(=O)O)CC[C@]23C)C1(C)C (some centres unmarked) | 5.575
CCC(=O)O[C@H]1CC[C@@]2(C)C(CC[C@]3(C)C2CC=C2C4[C@@H](C)[C@H](C)CC[C@]4(C(=O)Nc4ccccc4F)CC[C@]23C)C1(C)C (some centres unmarked) | 5.259
CCC(=O)O[C@H]1CC[C@@]2(C)C(CC[C@]3(C)C2CC=C2C4[C@@H](C)[C@H](C)CC[C@]4(C(=O)Nc4ccc(Br)cc4)CC[C@]23C)C1(C)C (some centres unmarked) | 5.329
CCC(=O)O[C@H]1CC[C@@]2(C)C(CC[C@]3(C)C2CC=C2C4[C@@H](C)[C@H](C)CC[C@]4(C(=O)Nc4ccc(OC)cc4)CC[C@]23C)C1(C)C (some centres unmarked) | 5.196
